Results on one compound are retold here after PMC4774911, “Biochemical Screening of Five Protein Kinases from Plasmodium falciparum against 14,000 Cell-Active Compounds” (PLoS ONE, 2016).

In general, IC50 refers to the concentration at which inhibition is half-maximal.

The target of one test is MAPK6 (Homo sapiens, UniProt Q16659). The test is described as follows: biochemical.
In another test the target is SYK (Homo sapiens, UniProt P43405). In words: biochemical.
The target of a further test is T1, MAP4K2 (Homo sapiens, UniProt Q12851).
T1 sequence (Q12851 1-820): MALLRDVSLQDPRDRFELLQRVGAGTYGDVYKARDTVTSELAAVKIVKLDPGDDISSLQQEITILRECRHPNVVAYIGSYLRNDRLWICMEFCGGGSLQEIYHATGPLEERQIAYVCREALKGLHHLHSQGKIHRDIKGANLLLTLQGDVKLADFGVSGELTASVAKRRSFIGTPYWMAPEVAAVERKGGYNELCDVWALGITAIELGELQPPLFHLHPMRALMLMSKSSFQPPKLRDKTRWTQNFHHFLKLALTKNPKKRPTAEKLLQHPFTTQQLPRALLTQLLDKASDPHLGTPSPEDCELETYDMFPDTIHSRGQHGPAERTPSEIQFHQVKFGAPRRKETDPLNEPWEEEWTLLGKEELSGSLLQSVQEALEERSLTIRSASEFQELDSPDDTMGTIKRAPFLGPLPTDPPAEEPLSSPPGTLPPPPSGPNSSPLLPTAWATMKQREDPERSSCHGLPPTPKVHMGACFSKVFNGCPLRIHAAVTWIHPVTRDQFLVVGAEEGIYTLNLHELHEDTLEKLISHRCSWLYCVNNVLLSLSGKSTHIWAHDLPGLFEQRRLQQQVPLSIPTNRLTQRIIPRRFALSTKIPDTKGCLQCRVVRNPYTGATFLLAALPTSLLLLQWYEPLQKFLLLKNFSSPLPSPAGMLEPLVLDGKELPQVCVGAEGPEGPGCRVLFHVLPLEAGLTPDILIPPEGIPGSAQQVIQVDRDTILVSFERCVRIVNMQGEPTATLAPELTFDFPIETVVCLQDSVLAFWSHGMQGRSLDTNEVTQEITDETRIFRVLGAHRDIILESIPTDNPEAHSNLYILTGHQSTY
In words: biochemical.

The target of another test is PRKACA (Homo sapiens, UniProt P17612). In words: biochemical.
The test system of test [1] is human kinases in K562 cell extract. The test is described as follows: Kinobead competition assay, kinome-wide summary. Format: binding. The following applies: K562 extract kinobeads.

On to `Cc1[nH]c(/C=C2\C(=O)Nc3ccc(S(=O)(=O)Cc4c(Cl)cccc4Cl)cc32)c(C)c1C(=O)N1CCC[C@@H]1CN1CCCC1` [TCMDC-125885], for which the half-maximal inhibitory concentration (IC50) against MAPK6, against SYK, at MAP4K2 and at PRKACA was above 20 µM each time. Moreover, the “Profile against human kinases (in words)” value in test [1] was “clean”.
